From patent US20230173091A1 (published 2023)

Target: T1, CD20 (Acro Biosystems) (UniProt P11836 1-297)
T1 sequence (looked up): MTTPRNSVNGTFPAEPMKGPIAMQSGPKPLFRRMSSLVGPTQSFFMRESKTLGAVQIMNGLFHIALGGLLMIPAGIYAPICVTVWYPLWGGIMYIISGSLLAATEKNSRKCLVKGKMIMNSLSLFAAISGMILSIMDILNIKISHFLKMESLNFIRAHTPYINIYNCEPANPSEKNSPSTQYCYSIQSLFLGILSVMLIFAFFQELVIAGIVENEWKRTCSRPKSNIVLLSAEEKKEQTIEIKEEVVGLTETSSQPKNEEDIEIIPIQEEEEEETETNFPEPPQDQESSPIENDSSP

B1: obinutuzumab (antibody, V domains shown)
VH: QVQLVQSGAEVKKPGSSVKVSCKASGYAFSYSWINWVRQAPGQGLEWMGRIFPGDGDTDYNGKFKGRVTITADKSTSTAYMELSSLRSEDTAVYYCARNVFDGYWLVYWGQGTLVTVSS
VL: DIVMTQTPLSLPVTPGEPASISCRSSKSLLHSNGITYLYWYLQKPGQSPQLLIYQMSNLVSGVPDRFSGSGSGTDFTLKISRVEAEDVGVYYCAQNLELPYTFGGGTKVEIK
- Kd: 5.03 nM
- koff: 0.00123 s⁻¹
- kon: 246000 M⁻¹ s⁻¹
